Measured values published in publication PMC10948575, “Characterization of the ADP-β-D-manno-heptose biosynthetic enzymes from two pathogenic Vibrio strains” (Applied Microbiology and Biotechnology, 2024).

Protein sequences, listed by entry. Tags and fused reporters are not part of them.
UniProt Q87T56, whole entry: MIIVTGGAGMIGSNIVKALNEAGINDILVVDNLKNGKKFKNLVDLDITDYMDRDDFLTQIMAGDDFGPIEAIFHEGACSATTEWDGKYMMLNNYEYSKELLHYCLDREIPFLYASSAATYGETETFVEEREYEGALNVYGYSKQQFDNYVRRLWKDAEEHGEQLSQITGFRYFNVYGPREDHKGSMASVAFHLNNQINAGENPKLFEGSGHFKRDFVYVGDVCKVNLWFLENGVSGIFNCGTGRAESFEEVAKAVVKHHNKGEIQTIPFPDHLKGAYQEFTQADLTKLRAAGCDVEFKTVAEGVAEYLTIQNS

Target: T1, HldDVP (Vibrio parahaemolyticus, UniProt Q87T56)
T1 construct: gene hldD
Assay: HPLC turnover assay
Assay type: biochemical
Conditions: 0.2 mM substrate, 2 mM NAD+, pH 8.0, 30 °C, 1 h

| Compound | HPLC turnover assay |
| --- | --- |
| Nc1ncnc2c1ncn2[C@@H]1O[C@H](COP(=O)(O)OP(=O)(O)O[C@@H]2O[C@H]([C@H](O)CO)[C@@H](O)[C@H](O)[C@@H]2O)[C@@H](O)[C@H]1O [ADP-D,D-manno-heptose] | HldDVP could also convert ADP-D,D-manno-heptose to ADP-L,D-manno-heptose under the same assay conditions. |
| Nc1ncnc2c1ncn2[C@@H]1O[C@H](COP(=O)(O)OP(=O)(O)O[C@@H]2O[C@H]([C@@H](O)CO)[C@@H](O)[C@H](O)[C@@H]2O)[C@@H](O)[C@H]1O [ADP-L,D-manno-heptose] | HldDVP could also convert ADP-D,D-manno-heptose to ADP-L,D-manno-heptose under the same assay conditions. |
